Experimental data reported in patent publication US9133180B2, “Aurora and FLT3 kinases modulators” (SAREUM LIMITED, priority 2012, dated 2015).

Sequences of proteins named here, by UniProt entry; tags and fusion partners are left off. Residues count along the entry.
UniProt Q96GD4, whole entry: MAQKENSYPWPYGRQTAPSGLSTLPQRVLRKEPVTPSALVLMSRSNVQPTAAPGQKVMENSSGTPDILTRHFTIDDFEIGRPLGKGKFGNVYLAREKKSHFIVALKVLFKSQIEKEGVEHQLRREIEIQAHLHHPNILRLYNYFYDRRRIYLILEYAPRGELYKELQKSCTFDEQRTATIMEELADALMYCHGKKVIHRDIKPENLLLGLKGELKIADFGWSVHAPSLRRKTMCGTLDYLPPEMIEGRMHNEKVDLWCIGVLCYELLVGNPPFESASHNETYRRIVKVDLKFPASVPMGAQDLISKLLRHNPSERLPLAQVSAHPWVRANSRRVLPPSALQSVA
UniProt P36888, 27-993: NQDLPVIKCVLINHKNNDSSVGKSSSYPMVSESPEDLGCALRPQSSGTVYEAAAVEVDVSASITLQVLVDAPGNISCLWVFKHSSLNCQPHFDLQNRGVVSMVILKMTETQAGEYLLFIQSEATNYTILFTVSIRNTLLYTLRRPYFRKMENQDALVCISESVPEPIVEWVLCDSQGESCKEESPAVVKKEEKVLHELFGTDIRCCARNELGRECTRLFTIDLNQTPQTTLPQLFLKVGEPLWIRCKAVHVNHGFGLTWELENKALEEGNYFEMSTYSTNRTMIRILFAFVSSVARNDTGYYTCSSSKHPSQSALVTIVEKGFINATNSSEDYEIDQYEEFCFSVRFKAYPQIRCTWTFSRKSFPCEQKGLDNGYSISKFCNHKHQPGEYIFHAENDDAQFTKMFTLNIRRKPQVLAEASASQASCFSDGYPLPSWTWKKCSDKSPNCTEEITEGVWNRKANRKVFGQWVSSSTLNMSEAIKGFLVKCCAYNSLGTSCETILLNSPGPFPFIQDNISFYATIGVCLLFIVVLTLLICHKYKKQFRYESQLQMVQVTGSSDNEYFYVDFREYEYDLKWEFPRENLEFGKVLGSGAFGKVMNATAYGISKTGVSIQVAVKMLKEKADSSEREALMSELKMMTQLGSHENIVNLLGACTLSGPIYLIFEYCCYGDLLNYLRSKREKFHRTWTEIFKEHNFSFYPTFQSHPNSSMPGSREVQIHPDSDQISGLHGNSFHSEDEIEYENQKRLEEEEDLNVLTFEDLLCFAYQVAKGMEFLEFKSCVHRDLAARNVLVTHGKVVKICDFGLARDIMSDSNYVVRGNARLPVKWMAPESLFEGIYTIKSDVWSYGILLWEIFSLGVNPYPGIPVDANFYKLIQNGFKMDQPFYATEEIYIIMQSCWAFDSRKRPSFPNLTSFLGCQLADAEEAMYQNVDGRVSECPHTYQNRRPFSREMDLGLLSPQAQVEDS

Assays:
Aurora B kinase = Aurora B kinase (Homo sapiens (Human), UniProt Q96GD4); experiment: Aurora B kinase 33P-ATP filter assay (Reaction Biology Corp.); assay type: biochemical
Protocol: (§1) The ability of the compounds of the invention to inhibit FLT3 kinase and Aurora A and Aurora B kinases was determined using the assays described below.
(§2) Kinase assays were performed at Reaction Biology Corp., Malvern, Pa., USA, using the following general procedure:
(§3) 1) Prepare indicated substrate in freshly prepared Base Reaction Buffer (20 mM Hepes pH 7.5, 10 mM MgCl2, 1 mM EGTA, 0.02% Brij35, 0.02 mg/ml BSA, 0.1 mM Na3VO4, 2 mM DTT, 1% DMSO).
(§4) 2) Deliver cofactors (1.5 mM CaCl2, 16 ug/mL Calmodulin, 2 mM MnCl2) to the substrate solution above.
(§5) 3) Deliver indicated kinase into the substrate solution and gently mix
(§6) 4) Deliver varying concentrations of test compound in DMSO into the kinase reaction mixture.
(§7) 5) Deliver ^33P-ATP (specific activity 0.01 µCi/µL final) into the reaction mixture to initiate the reaction.
(§8) 6) Incubate kinase reaction for 120 min at room temperature.
(§9) 7) Reactions are spotted onto P81 ion exchange filter paper (Whatman #3698-915)
(§10) 8) Unbound phosphate is removed by washing filters extensively in 0.75% phosphoric acid.
(§11) 9) ^33P signal was determined using Typhoon phosphorimagers (GE Healthcare).
(§12) Substrates: Kemptide=[H-LRRASLG] Abltide=[[…]]
(§13) For comparison purposes, the IC50 values for the compound 2-(1H-Indol-4-yl)-5-(4-piperazin-1-yl-phenyl)-oxazole-4-carboxylic acid amide disclosed in Example M-12 of WO2008/139161 are also shown.

RPMI8226 = experiment: CellTiter-Blue assay, haematological cell line; assay type: cell-based; conditions: Homo sapiens, RPMI-8226, 96 h; RPMI8226 (MM), four days treatment
Protocol: The compounds of Examples 2 and 7 were tested against a range of human haematological cell lines using the CellTiter-Blue® assay (#G8081, Promega) according to the manufacturer's instructions. Cells were harvested from exponential phase cultures, counted and plated in 96 well flat-bottom microtiter plates at a cell density of 20,000-90,000 cells/well. After a 24 h recovery period to allow the cells to resume exponential growth, 10 μl of culture medium (four control wells/plate) or of culture medium with test compound were added. The compounds were applied in duplicates at ten concentrations and treatment continued for four days. After treatment of cells, 10 μl/well CellTiter-Blue® reagent was added. Following an incubation period of up to four hours, fluorescence (FU) was measured by using the EnVision Xcite multilabel reader (excitation λ=531 nm, emission λ=615 nm). The compounds were tested in two to four independent experiments for each cell line.

FLT3 kinase = FLT3 kinase (Homo sapiens (Human), UniProt P36888); experiment: FLT3 kinase 33P-ATP filter assay (Reaction Biology Corp.); assay type: biochemical
Protocol: as §1, §2, §3, §4, §5, §6, §7, §8, §9, §10, §11, §12, §13

| Compound | IC50 (Aurora B kinase) [nM] | IC50 (RPMI8226) [nM] | IC50 (FLT3 kinase) [nM] |
| --- | --- | --- | --- |
| Cc1cc(F)c2[nH]ccc2c1-c1nc(C(N)=O)c(-c2ccc(N3CCNC(C)(C)C3)cc2)o1 [Example 7, 2-(5-Methyl-7-Fluoro-1H-Indol-4-yl)-5-[4-(3,3-dimethyl-piperazin-1-yl)-phenyl]-oxazole-4-carboxylic acid amide] | 5.93 | 1300 | – |
| CC1(C)CN(c2ccc(-c3oc(-c4cccc5[nH]ccc45)nc3C(N)=O)cc2)CCN1 [Example 11, 2-(1H-Indol-4-yl)-5-[4-(3,3-dimethyl-piperazin-1-yl)-phenyl]-oxazole-4-carboxylic acid amide] | – | – | 1.54 |
